{"source": "patent US20240217936A1", "about": "“5-BENZY[…] AND PREPARATION METHOD THEREFOR AND USE THEREOF” (WEST CHINA HOSPITAL, SICHUAN UNIVERSITY, priority 2021, published 2024)", "key": {"[1]": {"conditions": "reported (Anttila M, et al. 2003); cited from earlier work"}, "Male SD rats": {"tested_on": "Male SD rats", "assay": "Blood pressure change after tail vein injection (mean arterial pressure)", "conditions": "60 min recording", "description": "Male SD rats weighing 250-300 g were randomly divided into groups, with 10 rats in each group. General anesthesia was maintained by inhaling isoflurane. By intubating via femoral artery, blood pressure was monitored using the BL-420N biological signal collection and analysis system. minutes after blood pressure stabilization, the baseline mean arterial pressure (MAP0) was measured. Subsequently, the physiological saline solution of each test drug was injected via the tail vein (the dosage of each drug was the same as that in Experiment example 2, with a unified injection […] volume of 1 mL). […] All prodrug molecules were injected within 15 seconds. After injection of each drug, the change in blood pressure was continuously recorded for 60 min. […] The difference MAPΔ+ between the baseline mean arterial pressure (MAP0) and the highest mean arterial pressure (MAPmax) during the 60 min measurement time was calculated; the difference MAPΔ− between the baseline mean arterial pressure (MAP0) and the lowest mean arterial pressure (MAPmin) during the 60 min measurement time was also obtained; both of the difference values were used to calculate the maximum increase rate of mean arterial pressure +Δ%=MAPΔ+/MAP0*100% and the maximum decrease rate of mean arterial pressure −Δ%=MAPΔ−/MAP0*100%, respectively. The maximum increase rate of mean arterial pressure +Δ% and the maximum decrease rate −Δ% reflect the degree of blood pressure change that the body experienced after administration. The larger the value, the greater the blood pressure change that the body experienced."}, "[2]": {"conditions": "dosage 2× ED50, injection within 15 seconds, rats under isoflurane"}, "[3]": {"conditions": "dosage 2× ED50, injection within 10 minutes (0.1 mL per minute), rats"}}, "data": [{"smiles": "Cc1cccc([C@H](C)c2c[nH]cn2)c1C.Cl", "note": "[Dexmedetomidine hydrochloride, reference compound]", "values": [{"measurement": "oral bioavailability", "setting": "[1]", "result": 16, "unit": "%"}, {"measurement": "+Δ % (The maximum increase rate of blood pressure)", "setting": "Male SD rats; [2]", "result": "43 ± 11", "unit": "%"}, {"measurement": "−Δ % (The maximum decrease rate of blood pressure)", "setting": "Male SD rats; [2]", "result": "38 ± 7", "unit": "%"}, {"measurement": "+Δ % (The maximum increase rate of blood pressure)", "setting": "Male SD rats; [3]", "result": "*15 ± 5%"}, {"measurement": "−Δ % (The maximum decrease rate of blood pressure)", "setting": "Male SD rats; [3]", "result": "37 ± 8", "unit": "%"}]}]}
